Biological target: T1, human GLP-1 receptors (Homo sapiens, UniProt P43220)
T1 construct: expressed in transfected cells; host or cells: CHO-K1 (transient transfection, Lipofectamine 2000)
Assay: Albumin binding assessed by potency shift: cAMP activation of GLP-1 receptors expressed in CHO-K1 cells at different HSA concentrations
Format: cell-based
Settings: physiologic concentrations (2-4%) HSA versus low (0.1%) HSA
Description: EC50 values were converted to pEC50 values using the formula: pEC50=−Log(EC50).

Protein sequences, listed by entry. Tags and fused reporters are not part of them. Residues count along the entry.
UniProt P43220, 24-463: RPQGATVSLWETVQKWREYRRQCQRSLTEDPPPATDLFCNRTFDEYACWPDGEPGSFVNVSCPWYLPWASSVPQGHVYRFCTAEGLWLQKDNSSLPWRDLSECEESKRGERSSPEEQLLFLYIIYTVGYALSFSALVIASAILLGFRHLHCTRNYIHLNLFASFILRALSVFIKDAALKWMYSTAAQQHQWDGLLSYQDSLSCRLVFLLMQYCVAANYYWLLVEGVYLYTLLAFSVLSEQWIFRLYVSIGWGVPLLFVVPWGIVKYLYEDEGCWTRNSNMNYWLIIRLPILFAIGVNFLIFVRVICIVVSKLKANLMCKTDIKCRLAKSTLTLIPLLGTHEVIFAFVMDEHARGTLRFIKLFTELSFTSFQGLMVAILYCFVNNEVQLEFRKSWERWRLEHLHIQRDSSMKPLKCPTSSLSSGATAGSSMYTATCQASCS

GLP-1[7-36]NH2 was tested, and the “change in potency for activation of GLP-1 receptors” value was “no substantial reduction, or a slight increase”.

From US20200188479A1, “APPARATUS AND METHODS FOR ADMINISTRATION OF A NAUSEOGENIC COMPOUND FROM A DRUG DELIVERY DEVICE” (INTARCIA THERAPEUTICS, INC., priority 2017, published 2020)
